This test concerns the target T1, Histamine H2 -Receptor (Cavia porcellus, UniProt P47747).
T1 construct: from tissue; host or cells: isolated right atrium of male Hartley guinea pig
The test can be described thus: biochemical. Further details: species or system male Hartley guinea pig. The procedure: A male Hartley guinea pig having a body weight of about 400 g was killed by cervical dislocation, and the atrium thereof was isolated and was suspended in an organ bath containing […] of a modified Ringer solution and subjected to a tension of 1 g. The number of heart beats under such condition was recorded using a polygraph.
Initially, from 1×10^-7 mol to 3×10^-4 mol of histamine was allowed to act accumulatively to depict the curve of the dosage-reaction relationship. Likewise, the curve of the dosage of histamine-reaction relationship was depicted in the presence of 5×10^-7 mol to 1×10^-6 mol of the test sample which was injected 3 minutes before. The negative logarithm (pA2) of the molar concentration of the test sample required for moving the curve obtained by single administration of histamine parallel to the right side by a two-times concentration was calculated.

The chains behind the UniProt entries cited, without tags or fusion partners.
UniProt P47747, whole entry: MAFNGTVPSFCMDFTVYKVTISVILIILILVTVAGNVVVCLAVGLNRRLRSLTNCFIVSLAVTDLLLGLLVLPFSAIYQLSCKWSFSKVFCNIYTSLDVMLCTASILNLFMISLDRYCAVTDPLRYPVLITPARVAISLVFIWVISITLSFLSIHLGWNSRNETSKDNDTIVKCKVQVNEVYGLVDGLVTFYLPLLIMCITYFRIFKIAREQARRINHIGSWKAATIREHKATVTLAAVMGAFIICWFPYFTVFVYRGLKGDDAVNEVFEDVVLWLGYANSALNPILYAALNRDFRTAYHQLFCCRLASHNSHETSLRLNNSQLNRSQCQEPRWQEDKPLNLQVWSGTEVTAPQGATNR

The compound `CN/C(=N/CCSCc1nc[nH]c1C)NC#N` [Cimetidine, reference compound] had a Kb of 550 nM.

The record behind these values is US4710498A, “Pyridyloxy derivatives” (Ikeda Mohando Co., Ltd., priority 1984, dated 1987).
